Reference: patent US10912763B2 (priority 2010, dated 2021)

How the values were obtained:
[1] = test system: acute post-operative pain following orthopedic surgery (bunionectomy)
[2] = Storage stability of tablets made by fluid bed granulation; conditions: tablet, dosage 50 μg, 6 months

Molecule	deaths ([1]; 60 mg)	deaths ([1]; 60 mg controlled-release)	Content of decomposition product 6′-fluoro-4-phenyl-4′,9′-dihydro-3′H-spiro[cyclohex-3-ene-1,1′-pyrano[3,4-b]indole] ([2]; 25° C. and 60% rh) [%]	Content of decomposition product 6′-fluoro-4-phenyl-4′,9′-dihydro-3′H-spiro[cyclohex-3-ene-1,1′-pyrano[3,4-b]indole] ([2]; 40° C. and 75% RH) [%]
CN1CC[C@]23c4c5ccc(O)c4O[C@H]2[C@@H](O)C=C[C@H]3[C@H]1C5	0	0		
1,1-(3-methylamino-3-phenylpentamethylene)-6-fluoro-1,3,4,9-tetrahydropyrano[3,4-b]indole (trans)			< 0.1	< 0.1

Like-named read-outs stand apart in the source and are kept apart here.
